Earlier results, collected in patent US11180463B2, “Thiazole inner salt compounds, and preparation methods and uses thereof” (Institute of Pharmacology and Toxicology Academy of …, priority 2013, dated 2021).

Test system: long-term diabetic rats
Details: rat, in vivo; cited from earlier work

Compound: Cc1csc[n+]1CC(=O)O.[Na+] [Formula A, 3-carboxymethyl-4metyl-bromothiazolium sodium salt, reference compound]
- total peripheral resistance: reduced
